Data from US10662411B2, “Culture method for stable proliferation of pluripotent stem cell while maintaining undifferentiated state” (AJINOMOTO CO., INC., priority 2013, dated 2020).

Test system: induced pluripotent stem cells (iPS cells, 201B7 strain)
Test: Medium stabilizing effect of albumin: cell number after culture in fresh medium or medium preserved at 4° C.
Format: cell-based, human
Conditions: albumin 2.6 g/l in E8 medium, 1 week culture
Method: In the following Examples, proliferation effects of various test compounds on human pluripotent stem cells were evaluated. As human pluripotent stem cells, induced pluripotent stem cells (iPS cells, 201B7 strain) purchased from iPS Academia Japan, Inc. were used, unless particularly specified. Cell culture was performed using a culture vessel (Becton, Dickinson and Company, Falcon culture petri dish or Falcon culture plate) coated with a basal lamina matrix under the conditions of 5% CO2/37° C.
Various test compounds were added to a medium having the “E8” composition (disclosed in Nature Methods, 2011, 8, 424-429, which is incorporated herein by reference in its entirety) considered at present to be the minimum composition for cultivating human pluripotent stem cells at given concentrations and used for culture, and the effects thereof were studied. […]
Human serum-derived albumin (Sigma-Aldrich Co. LLC: A1887) was added at a final concentration of 2.6 g/l, and the effect of albumin was examined by studying the cell numbers after culture when used immediately after preparation for culture or when used after preservation at 4° C. for 3 weeks after the preparation. […] Viable cell number was measured by Trypan Blue (Life Technologies: 15250-061) staining using a hemocytometer.

albumin: Human serum-derived albumin (Sigma-Aldrich Co. LLC: A1887)
cell proliferation (viable cell number after culture) (used after preservation at 4° C. for 3 weeks): obvious cell proliferation was observed | cell proliferation (viable cell number after culture) (used immediately after preparation, compared with albumin-free medium): equivalent cell proliferation was observed with or without albumin addition
